According to PubChem BioAssay AID1508623 (National Center for Advancing Translational Sciences (NCATS), 2021):
Only a part is listed here, and it is no random draw. Records with an inconclusive call do not appear. Calls of active or inactive are those of the source. Calls come from the whole dose curve; as a rule, active = well fitted inhibition curve with a large enough effect; inconclusive = small, poorly fitted or top-dose-only effect; inactive = no such curve, though single readings can be large or run the other way.

test: Primary qHTS for Identification of Small Molecule Inhibitors of Huntingtin Promoter Activity; settings: HEK293 HTT promoter firefly luciferase reporter (activity 0% = vehicle and -100% = no light), 24 h; at 57.5 µM (top of the series) unless noted; note: nearly all actives have a fitted effect of over 50% in size
Description: Assay Provider: Russell L. Margolis M.D.
Department Neurology, Johns Hopkins University School of Medicine, Baltimore, MD
Huntington's Disease (HD) is a neurodegenerative disorder caused by a CAG repeat expansion in exon 1 of huntingtin (HTT). While there are currently no disease-modifying treatments for HD, recent efforts have focused on development of nucleotide-based therapeutics to lower HTT expression. As an alternative to siRNA or oligonucleotide methods, we hypothesized that suppression of HTT expression might be accomplished by small molecules that either (1) directly decrease HTT expression by suppressing HTT promoter activity or (2) indirectly decrease HTT expression by increasing the promoter activity of HTT-AS, the gene antisense to HTT that appears to inhibit expression of HTT.
We developed and employed a high throughput screen for modifiers of HTT and HTT-AS promoter activity using luminescent reporter HEK293 cells; of the 52,041 compounds tested, we identified 898 replicable hits. We used a rigorous stepwise approach to assess compound toxicity and the capacity of the compounds to specifically lower huntingtin protein in 5 different cell lines, including HEK293 cells, HD lymphoblastoid cells, mouse primary neurons, HD iPSCs differentiated into cortical-like neurons, and HD hESCs. We found no compounds which were able to lower huntingtin without lowering cell viability in all assays, though the potential efficacy of a few compounds at non-toxic doses could not be excluded.
SEQUENCE No. (1, 2, 3, etc.); […] (e.g., Cells, Incubation, Reagent, etc.); VALUE and DESCRIPTION.
1; Reagent; 4 uL; 2,500 Hek293 luciferase reporter cells per wells
3; Compound; 23 nL; Control inhibitor / compound library
5; Reagent; 2.5 uL; Firefly Luc reagent; Dual-Glo Luciferase Reporter Assay System (Promega)
6; Time; 10 min; room temperature incubation
7; Detection; Luminescence; FLuc
NOTES (numbers refer to sequence above)
1; High-throughput screening, measuring luminescence from a Hek293 luciferase reporter, was performed in 1,536 well white-walled tissue-culture treated plates. 2,500 cells were plated in 4 µL of Opti-MEM per well using a Multidrop Combi Reagent Dispenser (ThermoFisher).
2; Assay plates were cultured for 24 hours.
3; Control inhibitor (PTC124; final concentration of 50 uM) and compound library (at final concentrations of 460 nM - 57.5 uM) were added to the assay plate using the Kalypsis Pintool Robotic System equipped with 1536 pinheads.
4; Cells were then incubated for 24 hours at 37 degrees C prior to luminescence measurements.
5; In all cases, luminescence was measured using the Dual-Glo Luciferase Reporter Assay System (Promega) following the manufacturer's instructions.
6; Room temperature incubation.
7; Luminescence signal was obtained using the PerkinElmer ViewLux plate reader. Results were normalized to vehicle control (0% activity) and zero RLU (-100% activity).

**Q.** For `CN(C(=O)Cc1ccc(Cl)c(Cl)c1)[C@H]1CC[C@@]2(CCCO2)C[C@@H]1N1CCCC1`, which activity change, negative = inhibition is on record?
**A.** The activity change, negative = inhibition was inactive: -1.3%.

**Q.** With `NC(=O)Nc1ccc([As](=O)(O)O)cc1` as the molecule, how does the activity change, negative = inhibition read?
**A.** Its activity change, negative = inhibition is inactive: 0.601%.

**Q.** With `CCn1c(=O)n([C@@H]2CCN(CC3CCCCCCC3)C[C@@H]2CO)c2ccccc21` as the molecule, how does the activity change, negative = inhibition read?
**A.** Its activity change, negative = inhibition is inactive: -2.68%.

**Q.** With `CCNC(C)Cc1ccc2c(c1)OCO2` (stereo not given) as the molecule, how does the activity change, negative = inhibition read?
**A.** Its activity change, negative = inhibition is inactive: -1.05% [at 116 µM].

**Q.** Which activity change, negative = inhibition does the source give for `CN(C(=O)Cc1ccccc1)[C@H]1CC[C@@]2(CCCO2)C[C@@H]1N1CCCC1` here?
**A.** The activity change, negative = inhibition was inactive: 10.7%.
